Measurements reported in patent US20040043047A1, “Cosmetic or dermatological compositions containing at least one substance for increasing the functionality and/or expression of the CD44 membrane receptors of skin cells” (priority 1999, published 2004).

Tested on: human keratinocytes
Conditions: human keratinocytes in culture
Method: I-Measurement of the Amount of Haluronic Acid Bound to the Surface of Keratinocytes
The following steps are performed:
15,000 human keratinocytes are inoculated in culture wells (96-well plates) in a K-SFM medium (Gibco).
2—Production of Confluent Cultures:
Incubation of the cultures for 72 hours at 37° C. under a humidity-saturated atmosphere, with 5% CO2, with renewal of the culture medium after 48 h.
3—Binding of Hyaluronic Acid:
Incubation of the cells for 4 hours at 4° C. with hyaluronic acid covalently bonded to a fluorochrome, […] (HA-FA), synthesized in the laboratory according to the technique described in “Preparation and properties of fluoresceine-labelled hyaluronate; carbohydrate research, 1975, Vol. 44, pp. 251-257”, prepared in K-SFM containing 0.2% sodium azide.
4—Evaluation of the Activity of the Test Products:
The products for which it is desired to evaluate the action on the amount of HA-FA bound by keratinocytes are added to the incubation medium at the start of incubation. Controls are carried out in the absence of the products to be evaluated and in the presence of their excipient which was used to dissolve them.
5—Nonspecific Binding of HA-FA.
In order to determine the nonspecific labelling, the same experimental conditions as in step 3 are rigorously used, but with the addition of 200 times more hyaluronic acid not labelled with a fluorochrome.
6—Fluorescence Quantification:
After the HA-FA binding medium has been removed, two rinses with PBS are carried out, after which the fluorescence bound to the keratinocytes is measured at an excitation wavelength λex 485 nm and an emission wavelength λem=538 nm.
7—Expressing the Results:
The results are expressed in fluorescence units (“specific fluorescence”), with the nonspecific fluorescence being deducted (see 5-).
To do this, the fluorescence values measured are reduced to the cellular DNA content, carried out according to the DAPI method (see III-).

Row | Substance | Fluorescence measured (FU) Mean (Table II, 5 mM) | Fluorescence measured (FU) Mean (Table II, 10 mM) | Fluorescence measured (FU) Mean (Example 5 table, 5 mM) | Fluorescence measured (FU) Mean (Example 5 table, 10 mM)
1 | calcium gluconate | 310* FU | 2,745* FU | – | –
2 | manganese chloride [MnCl2] | – | – | 1,593* FU | 1,524* FU

Like-named read-outs stand apart in the source and are kept apart here. Marks after values point to notes of the source that are not given here.
